# B1: E3 ubiquitin-protein ligase RNF5 (Homo sapiens), Q99942 (parent)
# chain: MAAAEEEDGGPEGPNRERGGAGATFECNICLETAREAVVSVCGHLYCWPCLHQWLETRPERQECPVCKAGISREKVVPLYGRGSQKPQDPRLKTPPRPQGQRPAPESRGGFQPFGDTGGFHFSFGVGAFPFGFFTTVFNAHEPFRRGTGVDLGQGHPASSWQDSLFLFLAIFFFFWLLSI
# Variants of: B1
# Conditions: with paxi_human PXN
row,Variant,effect of a mutation on the interaction
1,C27A;C30A,increasing interaction
